IC50 data for 2 compounds are collected here from BindingDB's records for doi:10.7270/Q2J96B77 (D3R/Abbott, 2020).

Protein sequences, listed by entry. Tags and fused reporters are not part of them.
UniProt P25774, whole entry: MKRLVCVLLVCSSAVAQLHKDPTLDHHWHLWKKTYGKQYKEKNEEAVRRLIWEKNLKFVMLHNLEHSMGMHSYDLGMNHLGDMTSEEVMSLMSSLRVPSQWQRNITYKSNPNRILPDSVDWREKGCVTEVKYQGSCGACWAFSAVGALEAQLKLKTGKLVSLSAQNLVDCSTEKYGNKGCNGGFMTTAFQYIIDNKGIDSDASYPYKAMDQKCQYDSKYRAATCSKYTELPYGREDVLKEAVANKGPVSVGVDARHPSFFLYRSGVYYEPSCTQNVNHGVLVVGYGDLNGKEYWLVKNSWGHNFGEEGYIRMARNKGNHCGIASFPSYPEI

For the assay, the target named is Cathepsin S (Homo sapiens, UniProt P25774). Put plainly: D3R2020.

As for `CS(=O)(=O)N1CCc2c(c(-c3ccc(C(F)(F)F)cc3)nn2C[C@H](O)CN2CCC(c3c[nH]c4cc[n+]([O-])cc34)CC2)C1` [CatS_1], the 50% inhibitory concentration (IC50) (in general, the concentration at which inhibition is half-maximal) was 0.2 µM.
Take `CS(=O)(=O)N1CCc2c(c(-c3ccc(C(F)(F)F)cc3)nn2C[C@@H](O)CN2CCC(c3c[nH]c4cc[n+]([O-])cc34)CC2)C1` [CatS_2]: it took 0.2 µM to reach half-maximal inhibition (IC50).
